pEC50: −log10 of the molar value.
Target: hCB2R (Homo sapiens, UniProt P34972)
Assay: cell-based
Design: expressed in transfected cells; host or cells: HEK293TR cells, tetracycline-induced, live cells

Protein sequences, listed by entry. Tags and fused reporters are not part of them.
UniProt P34972, whole entry: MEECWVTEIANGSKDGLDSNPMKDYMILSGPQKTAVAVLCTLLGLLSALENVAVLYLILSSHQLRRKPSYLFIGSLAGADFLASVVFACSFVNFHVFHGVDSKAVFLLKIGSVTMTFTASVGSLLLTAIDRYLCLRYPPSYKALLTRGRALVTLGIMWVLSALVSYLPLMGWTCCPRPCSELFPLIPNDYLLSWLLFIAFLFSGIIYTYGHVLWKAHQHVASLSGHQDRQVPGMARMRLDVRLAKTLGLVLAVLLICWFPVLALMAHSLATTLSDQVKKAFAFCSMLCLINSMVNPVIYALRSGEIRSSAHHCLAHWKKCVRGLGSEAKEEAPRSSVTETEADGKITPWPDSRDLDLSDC

Q: `CCCCCCC(C)(C)c1cc(OC)c([C@@H]2C=C(CO)[C@@H]3C[C@H]2C3(C)C)c(OC)c1` [HU-308, reference compound] was tested. Which pEC50 did it give?
A: 8.37
